Results from ChEMBL document CHEMBL1125689, “Structure-activity studies on a potent antagonist to organophosphate-induced toxicity” (1991).
The source made the active and inactive calls. The calls are words filed in the database; no cut-off is given here.

Tested on: Mus musculus
Assay: Ability to antagonize paraoxon-induced lethality in mice.(umol/kg required to protect 50% of the mice for 24 hr versus a LD99 dose of paraoxon); IA=Inactive

SMILES | PD50
C[N+](C)(CC(=O)c1ccc(-c2ccccc2)cc1)CC1OCCCO1 | inactive
C[N+](C)(C)CC1OCCCO1 | inactive
C[N+](C)(CC(=O)c1ccc(-c2ccc(C(=O)C[N+](C)(C)CC3OCCO3)cc2)cc1)CC1OCCO1 | inactive
C[N+](C)(CC(=O)c1ccccc1)CC1OCCCO1 | inactive

Tested on: not listed separately
Assay: The relative potency was evaluated

SMILES | Relative potency
C[N+](C)(CC(=O)c1ccc(-c2ccc(C(=O)C[N+](C)(C)CC3OCCCO3)cc2)cc1)CC1OCCCO1 | 1
CN(C)C(=O)Oc1ccc[n+](C)c1 | 0.21
CNC(=O)Oc1ccc2c(c1)[C@]1(C)CCN(C)[C@@H]1N2C | 0.37

Tested on: Mus musculus
Assay: Ability to antagonize paraoxon-induced lethality in mice.(umol/kg required to protect 50% of the mice for 24 hr versus a LD99 dose of paraoxon); inactive

SMILES | PD50
C[N+](C)(CC(=O)c1ccc(-c2ccc(C(=O)C[N+](C)(C)CC3CCCCC3)cc2)cc1)CC1CCCCC1 | inactive
C[N+](C)(CC(=O)c1ccc(-c2ccc(C(=O)C[N+](C)(C)CC3CCOCO3)cc2)cc1)CC1CCOCO1 (centres undefined) | inactive
